Experimental data taken from ChEMBL document CHEMBL4400539, “Discovery of a Novel Chemotype of Histone Lysine Methyltransferase EHMT1/2 (GLP/G9a) Inhibitors: Rational Design, Synthesis, Biological Evaluation, and Co-crystal Structure” (J Med Chem, 2019).

Molecular target: T1, Histone-lysine N-methyltransferase EHMT2 (Homo sapiens, UniProt Q96KQ7)
T1 sequence (Q96KQ7 whole entry): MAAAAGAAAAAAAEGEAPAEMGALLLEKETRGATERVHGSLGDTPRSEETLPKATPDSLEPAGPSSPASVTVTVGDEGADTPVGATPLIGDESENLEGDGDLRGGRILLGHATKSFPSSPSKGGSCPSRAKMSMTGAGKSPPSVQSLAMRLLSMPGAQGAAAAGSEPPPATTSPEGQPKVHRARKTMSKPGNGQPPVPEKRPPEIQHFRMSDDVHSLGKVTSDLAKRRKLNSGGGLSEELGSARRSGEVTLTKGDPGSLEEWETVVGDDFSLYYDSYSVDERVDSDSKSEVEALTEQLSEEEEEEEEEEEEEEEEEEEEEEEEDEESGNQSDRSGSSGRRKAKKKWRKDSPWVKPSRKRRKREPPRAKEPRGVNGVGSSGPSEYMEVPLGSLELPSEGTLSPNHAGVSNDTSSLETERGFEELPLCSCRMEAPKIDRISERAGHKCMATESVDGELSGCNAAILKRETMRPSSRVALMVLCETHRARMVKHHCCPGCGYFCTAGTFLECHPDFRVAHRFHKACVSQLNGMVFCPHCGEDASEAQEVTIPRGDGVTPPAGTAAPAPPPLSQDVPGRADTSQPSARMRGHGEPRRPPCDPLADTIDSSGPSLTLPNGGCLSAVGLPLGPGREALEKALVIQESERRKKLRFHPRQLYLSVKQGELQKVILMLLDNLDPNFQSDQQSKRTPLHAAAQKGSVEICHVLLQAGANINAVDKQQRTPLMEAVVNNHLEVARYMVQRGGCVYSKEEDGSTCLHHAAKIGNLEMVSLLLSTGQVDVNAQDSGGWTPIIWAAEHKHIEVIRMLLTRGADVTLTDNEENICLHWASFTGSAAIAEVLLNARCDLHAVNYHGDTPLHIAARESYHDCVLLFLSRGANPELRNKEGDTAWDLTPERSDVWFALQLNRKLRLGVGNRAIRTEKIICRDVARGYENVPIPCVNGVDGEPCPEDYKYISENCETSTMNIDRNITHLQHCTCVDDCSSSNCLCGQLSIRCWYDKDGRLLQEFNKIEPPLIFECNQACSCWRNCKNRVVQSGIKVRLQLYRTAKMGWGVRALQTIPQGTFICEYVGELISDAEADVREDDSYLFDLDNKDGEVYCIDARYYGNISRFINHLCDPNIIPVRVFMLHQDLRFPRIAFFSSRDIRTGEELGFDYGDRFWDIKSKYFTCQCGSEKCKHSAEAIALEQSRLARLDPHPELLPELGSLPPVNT
Test: Inhibition G9a (unknown origin)

O=C(O)c1ccc2c(c1)nc(NC(=O)c1ccccc1)n2CCCc1ccccc1
IC50: 1500 nM
